Reference: ChEMBL document CHEMBL5728091, “3-((hetero-)aryl)-alkyl-8-amino-2-oxo-l,3-diaza-spiro-[4.5]-decane derivatives” (2020)

Chains of the proteins cited; added tags and fusions are not shown. Lines headed by an entry give the natural chain unless they say otherwise; changes in a name come on top.
UniProt P41146: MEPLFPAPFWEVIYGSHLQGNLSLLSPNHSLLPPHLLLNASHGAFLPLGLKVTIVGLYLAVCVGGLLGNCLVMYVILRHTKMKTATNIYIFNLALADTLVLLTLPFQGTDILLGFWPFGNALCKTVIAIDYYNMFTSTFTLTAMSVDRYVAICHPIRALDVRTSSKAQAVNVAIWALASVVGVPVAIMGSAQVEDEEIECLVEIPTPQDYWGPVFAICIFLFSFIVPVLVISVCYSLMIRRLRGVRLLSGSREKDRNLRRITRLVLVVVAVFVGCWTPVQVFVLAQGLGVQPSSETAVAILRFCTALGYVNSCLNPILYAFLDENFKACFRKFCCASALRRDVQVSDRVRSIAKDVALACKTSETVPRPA
UniProt P35372, whole entry, looked up: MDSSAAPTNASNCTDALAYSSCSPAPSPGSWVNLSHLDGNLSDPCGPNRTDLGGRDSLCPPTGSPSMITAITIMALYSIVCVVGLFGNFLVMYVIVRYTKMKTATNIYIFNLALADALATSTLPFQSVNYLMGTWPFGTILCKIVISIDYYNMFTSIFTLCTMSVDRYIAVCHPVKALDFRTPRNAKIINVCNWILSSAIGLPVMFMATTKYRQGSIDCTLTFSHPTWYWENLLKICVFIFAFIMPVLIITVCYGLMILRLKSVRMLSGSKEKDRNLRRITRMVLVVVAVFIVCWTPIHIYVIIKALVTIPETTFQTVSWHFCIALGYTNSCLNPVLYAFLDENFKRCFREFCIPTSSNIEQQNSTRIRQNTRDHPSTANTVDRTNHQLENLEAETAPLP

Key:
[1] = target: Nociceptin receptor (Homo sapiens, UniProt P41146); test: Receptor Binding Assay: The hNOP receptor binding assay was performed as homogeneous SPA-assay (scintillation proximity assay) using the assay buffer 50 mM TRIS-HCl. 10 mM MgCl2. 1 mM EDTA (pH 7.4). The final assay volume (250 ul/well) included 0.5 nM of [leucyl-3H]nociceptin as ligand (PerkinElmer Life Sciences. Inc. Boston. Mass. USA). and either test compound in dilution series or 1 uM unlabell
[2] = target: Mu-type opioid receptor (Homo sapiens, UniProt P35372); test: Receptor Binding Assay: Mu-Opioid Peptide (hMOP): The hMOP receptor binding assay was performed as homogeneous SPA-assay (scintillation proximity assay) using the assay buffer 50 mM TRIS-HCl (pH 7.4) supplemented with 0.052 mg/ml bovine serum albumin (Sigma-Aldrich Co. St. Louis. Mo.). The final assay volume (250 μl/well) included 1 nM of [N-allyl-2.3-3H]naloxone as ligand (PerkinElmer Life Scienc

COc1ccc(CN2C[C@]3(CC[C@](c4ccc(O)cc4)(N(C)C)CC3)N(CC3CCC3)C2=O)cc1
Ki [1]: 4620 nM | Ki [2]: 1200 nM

COc1ccc(CN2C[C@]3(CC[C@](c4ccccc4)(N(C)C)CC3)N(Cc3ccncn3)C2=O)cc1
Ki [1]: 5140 nM | Ki [2]: 215 nM

COc1ccc(CN2C[C@]3(CC[C@](c4ccccc4)(N(C)C)CC3)N(CC3CCCCC3)C2=O)cc1
Ki [1]: 545 nM | Ki [2]: 31 nM

COc1ccc(CN2C[C@]3(CC[C@](c4ccccc4)(N(C)C)CC3)N(CCCO)C2=O)cc1
Ki [1]: 4700 nM | Ki [2]: 218 nM

CN[C@]1(c2ccccc2)CC[C@]2(CC1)CN(Cc1cccc(OC)c1)C(=O)N2CC1CCC1
Ki [1]: 255 nM | Ki [2]: 11 nM

COc1ccc(CN2C[C@]3(CC[C@](c4ccccc4)(N(C)C)CC3)N(CC3(O)CCCC3)C2=O)cc1
Ki [1]: 480 nM | Ki [2]: 9.1 nM

COCCOCCOCCOCCOCCOCCOc1cccc(CN2C[C@]3(CC[C@](c4ccccc4)(N(C)C)CC3)N(CC3CCC3)C2=O)c1
Ki [1]: 305 nM | Ki [2]: 15.5 nM

CN[C@]1(c2ccccc2)CC[C@]2(CC1)CN(Cc1ccc(OC)cc1)C(=O)N2CC1CCC1
Ki [1]: 275 nM | Ki [2]: 10.8 nM

COc1ccc(CN2C[C@]3(CC[C@](c4ccccc4)(N(C)C)CC3)NC2=O)cc1
Ki [1]: 2640 nM | Ki [2]: 91 nM

CCCCCCN1C(=O)N(Cc2ccc(OC)cc2)C[C@]12CC[C@](c1ccccc1)(N(C)C)CC2
Ki [1]: 340 nM | Ki [2]: 43.5 nM

COc1ccc(CN2C[C@]3(CC[C@](c4ccccc4)(N(C)CCO)CC3)N(CC3CCC3)C2=O)cc1
Ki [1]: 3440 nM | Ki [2]: 200 nM

COc1ccc(CN2C[C@]3(CC[C@](c4ccccc4)(N(C)C)CC3)N(CC3CCOCC3)C2=O)cc1
Ki [1]: 2780 nM | Ki [2]: 96.5 nM

COc1ccc(CN2C[C@]3(CC[C@](c4ccccc4)(N(C)C)CC3)N(CCCCC#N)C2=O)cc1
Ki [1]: 860 nM | Ki [2]: 40 nM

CCN(C)[C@]1(c2ccccc2)CC[C@]2(CC1)CN(Cc1cccnc1)C(=O)N2CC1CCC1
Ki [1]: 855 nM | Ki [2]: 27 nM

CN(C)[C@]1(c2ccccc2)CC[C@]2(CC1)CN(Cc1cccc(S(C)(=O)=O)c1)C(=O)N2
Ki [1]: 5240 nM | Ki [2]: 145 nM

COc1ccc(CN2C[C@]3(CC[C@](c4ccccc4)(N(C)C)CC3)N(CCCOC(F)(F)F)C2=O)cc1
Ki [1]: 160 nM | Ki [2]: 19.5 nM

COc1ccc(CN2C[C@]3(CC[C@](c4ccccc4)(N(C)C)CC3)N(C)C2=O)cc1
Ki [1]: 2390 nM | Ki [2]: 180 nM

COc1ccc(CN2C[C@]3(CC[C@](c4ccccc4)(N(C)C)CC3)N(CC3(C)CCC3)C2=O)cc1
Ki [1]: 675 nM | Ki [2]: 14 nM

CN(C)[C@]1(c2ccccc2)CC[C@]2(CC1)CN(CCn1ccnc1)C(=O)N2
Ki [1]: 2000 nM | Ki [2]: 255 nM

CN(C)[C@]1(c2ccccc2)CC[C@]2(CC1)CN(C1(c3ccccc3)CC1)C(=O)N2CC1(O)CCC1
Ki [1]: 99.5 nM | Ki [2]: 18 nM

COc1ccc(CN2C[C@]3(CC[C@](c4cccc(F)c4)(N(C)C)CC3)NC2=O)cc1
Ki [1]: 5460 nM | Ki [2]: 80 nM

COc1ccccc1CN1C[C@]2(CC[C@](c3ccccc3)(N(C)C)CC2)N(Cc2ccc(C#N)cc2)C1=O
Ki [1]: 1050 nM | Ki [2]: 390 nM

CN[C@]1(c2ccccc2)CC[C@]2(CC1)CN(Cc1cn(CCO)nn1)C(=O)N2CC1CCC1
Ki [1]: 82.5 nM | Ki [2]: 31 nM

COc1ccc(CN2C[C@]3(CC[C@](c4ccccc4)(N(C)C)CC3)N(CC(C)(C)OC)C2=O)cc1
Ki [1]: 920 nM | Ki [2]: 49.5 nM

CCCN1C(=O)N(Cc2ccc(OC)cc2)C[C@]12CC[C@](c1ccccc1)(N(C)C)CC2
Ki [1]: 575 nM | Ki [2]: 11.2 nM

COc1ccc(CN2C[C@]3(CC[C@](c4ccccc4)(N(C)C)CC3)N(C[C@@H](C)O)C2=O)cc1
Ki [1]: 995 nM | Ki [2]: 195 nM

COc1ccc(CN2C[C@]3(CC[C@](c4ccccc4)(N(C)C)CC3)N(CC(=O)NCC#N)C2=O)cc1
Ki [1]: 5480 nM | Ki [2]: 330 nM

CN(C)[C@]1(c2ccccc2)CC[C@]2(CC1)CN(Cc1ccccc1C#N)C(=O)N2CC1CCC1
Ki [1]: 380 nM | Ki [2]: 5.6 nM

COc1ccc(CN2C[C@]3(CC[C@](c4ccccc4)(N(C)C)CC3)N(CCC3CCCCC3)C2=O)cc1
Ki [1]: 625 nM | Ki [2]: 87.5 nM
